Earlier results on two compounds are cited in patent US20080070794A1, “Chemical sensors” (The Trustees of Princeton University, priority 2005, published 2008).

The chains behind the UniProt entries cited, without tags or fusion partners.
UniProt P21728, whole entry: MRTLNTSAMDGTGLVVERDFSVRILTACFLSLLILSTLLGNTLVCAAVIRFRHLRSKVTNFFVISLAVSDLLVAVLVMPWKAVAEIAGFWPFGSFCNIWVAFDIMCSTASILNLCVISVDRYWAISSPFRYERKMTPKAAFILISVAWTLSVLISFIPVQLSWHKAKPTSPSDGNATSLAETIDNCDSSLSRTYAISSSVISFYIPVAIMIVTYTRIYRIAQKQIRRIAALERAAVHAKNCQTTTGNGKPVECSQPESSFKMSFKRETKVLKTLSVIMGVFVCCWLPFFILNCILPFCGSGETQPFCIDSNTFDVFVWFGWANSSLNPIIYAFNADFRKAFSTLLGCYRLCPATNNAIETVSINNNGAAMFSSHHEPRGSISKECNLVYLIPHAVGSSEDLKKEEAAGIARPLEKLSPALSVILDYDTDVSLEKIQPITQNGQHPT
UniProt P28222, whole entry, species assumed: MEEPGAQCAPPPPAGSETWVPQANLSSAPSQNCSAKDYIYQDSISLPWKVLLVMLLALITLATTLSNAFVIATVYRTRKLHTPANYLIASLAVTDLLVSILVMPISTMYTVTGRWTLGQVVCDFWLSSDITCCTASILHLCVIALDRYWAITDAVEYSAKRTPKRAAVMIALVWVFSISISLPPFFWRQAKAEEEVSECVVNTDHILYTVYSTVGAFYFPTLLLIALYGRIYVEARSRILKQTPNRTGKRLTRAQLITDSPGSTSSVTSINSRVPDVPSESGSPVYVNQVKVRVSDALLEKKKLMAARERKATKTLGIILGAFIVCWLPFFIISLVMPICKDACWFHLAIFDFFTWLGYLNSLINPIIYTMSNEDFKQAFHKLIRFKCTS
UniProt P08908, whole entry, species assumed: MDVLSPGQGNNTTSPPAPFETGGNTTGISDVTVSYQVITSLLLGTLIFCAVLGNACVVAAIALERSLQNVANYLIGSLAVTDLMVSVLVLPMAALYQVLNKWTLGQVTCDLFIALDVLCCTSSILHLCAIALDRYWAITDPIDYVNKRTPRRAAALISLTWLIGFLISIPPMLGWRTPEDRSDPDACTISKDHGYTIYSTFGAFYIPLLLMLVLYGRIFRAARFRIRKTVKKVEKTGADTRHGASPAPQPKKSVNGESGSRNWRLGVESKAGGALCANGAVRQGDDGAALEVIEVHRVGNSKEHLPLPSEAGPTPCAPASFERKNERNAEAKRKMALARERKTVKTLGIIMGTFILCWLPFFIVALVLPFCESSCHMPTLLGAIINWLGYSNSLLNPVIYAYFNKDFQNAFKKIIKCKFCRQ

For one data set, the target named is D1 (Homo sapiens, UniProt P21728). The settings on record: cited from earlier work.
The target of the next data set is 5HT-1b (Homo sapiens, UniProt P28222). The conditions noted are these: read-out: Kd 5HT-1b; cited from earlier work.
The target of the next data set is 5HT-1a (Homo sapiens, UniProt P08908). The settings on record: read-out: Kd 5HT-1a; cited from earlier work.
The target of another data set is Muscarinic. The conditions noted are these: cited from earlier work.

For orientation: Kd means the equilibrium constant for the complex coming apart. Consider `CNC[C@H](O)c1ccc(O)c(O)c1` [epinephrine], for which the Kd was 1.2 µM on D1, 100 µM on 5HT-1b and 25 µM on 5HT-1a.

Take `Clc1cccc(Cl)c1N=C1NCCN1` [clonidine]: the Kd on Muscarinic was 100 µM.
